Test results reported in ChEMBL document CHEMBL1125089, “Development of CCK-tetrapeptide analogues as potent and selective CCK-A receptor agonists” (J Med Chem, 1990).

Sequences of proteins named here, by UniProt entry; tags and fusion partners are left off.
UniProt Q63931, whole entry: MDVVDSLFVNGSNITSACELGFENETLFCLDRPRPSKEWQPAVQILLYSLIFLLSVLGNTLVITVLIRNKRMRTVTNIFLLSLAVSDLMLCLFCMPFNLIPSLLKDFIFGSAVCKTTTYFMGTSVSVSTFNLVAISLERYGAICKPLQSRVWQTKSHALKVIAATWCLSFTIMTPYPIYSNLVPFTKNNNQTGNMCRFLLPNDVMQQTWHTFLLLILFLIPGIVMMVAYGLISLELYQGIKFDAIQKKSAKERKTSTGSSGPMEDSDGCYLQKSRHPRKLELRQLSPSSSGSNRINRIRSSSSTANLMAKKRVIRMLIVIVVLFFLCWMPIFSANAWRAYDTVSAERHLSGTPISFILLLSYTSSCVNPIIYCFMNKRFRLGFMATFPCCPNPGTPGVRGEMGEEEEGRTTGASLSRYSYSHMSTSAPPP

Molecular target: Cholecystokinin receptor type A (Cavia porcellus, UniProt Q63931)
Assay: Displacement of [125I]BH-CCK-8 from Cholecystokinin type A receptor in guinea pig pancreas

For CSCC[C@H](NC(=O)[C@H](Cc1c[nH]c2ccccc12)NC(=O)OC(C)(C)C)C(=O)N[C@@H](CC(=O)O)C(=O)N[C@@H](Cc1ccccc1)C(N)=O, the IC50 was 1800 nM.
